Source: patent publication US5789404A, “3-substituted 1-arylindole compounds” (H. Lundbeck A/S, priority 1993, dated 1998)

Protein sequences, listed by entry. Tags and fused reporters are not part of them.
UniProt P61169, whole entry: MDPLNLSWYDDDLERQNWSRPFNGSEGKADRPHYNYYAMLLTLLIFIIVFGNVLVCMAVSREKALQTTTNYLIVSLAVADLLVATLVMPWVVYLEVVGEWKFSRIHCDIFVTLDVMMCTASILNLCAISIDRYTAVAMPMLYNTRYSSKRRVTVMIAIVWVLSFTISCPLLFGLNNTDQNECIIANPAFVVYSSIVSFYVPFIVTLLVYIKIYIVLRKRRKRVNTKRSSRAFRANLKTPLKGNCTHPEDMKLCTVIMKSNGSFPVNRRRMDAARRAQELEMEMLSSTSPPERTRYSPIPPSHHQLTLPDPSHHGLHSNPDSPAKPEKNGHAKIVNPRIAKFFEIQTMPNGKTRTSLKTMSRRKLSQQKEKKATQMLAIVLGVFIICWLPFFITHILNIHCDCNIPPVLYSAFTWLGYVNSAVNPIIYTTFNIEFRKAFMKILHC

Biological target: dopamine D2 receptors (Rattus norvegicus, UniProt P61169)
Settings: ^3 H-spiroperidol 0.5 nM; rat corpus striatum membranes; read-out: Dopamin D2 binding ^3 H spiroperidol, IC50
Protocol: Inhibition of ^3 H-Spiroperidol Binding to Dopamine D2 Receptors in Rat Corpus Striatum in vitro
By this method the inhibition by drugs of the binding of ^3 H-spiroperidol (0.5 nM) to dopamine D2 receptors in membranes from rat corpus striatum is determined in vitro. The method is described in Hyttel & Larsen, J. Neurochem, 44, 1615-1622, 1985).

CCN(CCOc1cn(-c2ccc(F)cc2)c2ccc(Cl)cc12)CCN1CCNC1=O [Compound 4c, 1-[2-[[2-[5-Chloro-1-(4-fluorophenyl)-3-1H-indolyloxy]ethyl]ethylamino]ethyl]-2-imidazolidinone maleate]
IC50: 0.018 µM

Structures can show the parent of a compound that is named as a salt.
